Molecules are shown by their SMILES. pIC50: −log10 of the molar value.

Chains of the proteins cited; added tags and fusions are not shown.
UniProt O43614, whole entry: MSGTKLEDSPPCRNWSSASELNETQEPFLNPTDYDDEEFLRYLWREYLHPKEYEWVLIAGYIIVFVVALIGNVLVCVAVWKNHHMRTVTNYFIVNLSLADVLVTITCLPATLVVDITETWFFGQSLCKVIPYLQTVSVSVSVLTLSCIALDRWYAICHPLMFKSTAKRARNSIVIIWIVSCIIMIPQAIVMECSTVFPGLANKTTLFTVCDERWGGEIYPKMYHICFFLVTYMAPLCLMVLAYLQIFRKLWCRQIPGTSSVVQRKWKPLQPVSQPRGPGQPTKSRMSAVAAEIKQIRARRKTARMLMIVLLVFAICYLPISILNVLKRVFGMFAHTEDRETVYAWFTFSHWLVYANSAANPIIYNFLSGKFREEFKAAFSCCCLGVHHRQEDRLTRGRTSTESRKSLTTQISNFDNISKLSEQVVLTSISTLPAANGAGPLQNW

One test has as its target T1, OX2 (Homo sapiens, UniProt O43614).
T1 construct: expressed in transfected cells; host or cells: CHO (CHO-OX2, kept under selection antibiotic)
Kind of test: Orexin receptor cell-based functional assay, [Ca2+]i by FLIPR, CHO-OX2 cells. To be noted: CHO-OX2 cells, [Ca2+]i by FLIPR, antagonist dose-range 0.1 nM-10 μM, EC90 of OXA; read-out: OX2.
As to `C[C@@H]1CCCN(C(=O)c2cc(F)ccc2-c2ncccn2)[C@@H]1CNc1ccc(C(F)(F)F)cn1` [Example A228, (5-Fluoro-2-(pyrimidin-2-yl)phenyl)((2S,3R)-3-methyl-2-(((5-(trifluoromethyl)pyridin-2-yl)amino)methyl)piperidin-1-yl)methanone], the pIC50 is < 5.30.

Turning to `Cc1ccc(-c2nccs2)c(C(=O)N2CCC[C@@H](C)[C@H]2CNc2ccc(C(F)(F)F)cn2)c1` [Example A24, ((2S,3R)-3-Methyl-2-(((5-(trifluoromethyl)pyridin-2-yl)amino)methyl)piperidin-1-yl)(5-methyl-2-(thiazol-2-yl)phenyl)methanone], the pIC50 was 6.39.

Take `C[C@@H]1CCCN(C(=O)c2cc(F)ccc2-n2nccn2)[C@@H]1CNc1ncc(Cl)cn1` [Example A221, ((2S,3R)-2-(((5-Chloropyrimidin-2-yl)amino)methyl)-3-methylpiperidin-1-yl)(5-fluoro-2-(2H-1,2,3-triazol-2-yl)phenyl)methanone]: the pIC50 is < 5.30.

Turning to `Cc1ccc(-c2ccccn2)c(C(=O)N2CCC[C@@H](C)[C@H]2CNc2ncc(C(F)(F)F)cn2)n1` [Example A167, ((2S,3R)-3-Methyl-2-(((5-(trifluoromethyl)pyrimidin-2-yl)amino)methyl)piperidin-1-yl)(6′-methyl-[2,3′-bipyridin]-2′-yl)methanone], the pIC50 was < 5.30.

`Cc1ccc(-n2ccc(C)n2)c(C(=O)N2CCC[C@@H](C)[C@H]2CNc2ncc(C#N)cn2)c1` [Example A131, 2-((((2S,3R)-3-Methyl-1-(5-methyl-2-(3-methyl-1H-pyrazol-1-yl)benzoyl)piperidin-2-yl)methyl)amino)pyrimidine-5-carbonitrile]: the pIC50 was < 5.30.

Consider `Cc1ccc(-c2cn[nH]c2)c(C(=O)N2CCC[C@@H](C)[C@H]2CNc2ccc(C(F)(F)F)cn2)c1` [Example A3, ((2S,3R)-3-Methyl-2-(((5-(trifluoromethyl)pyridin-2-yl)amino)methyl)piperidin-1-yl)(5-methyl-2-(1H-pyrazol-4-yl)phenyl)methanone], for which the pIC50 was < 5.40.

As for `C[C@@H]1CCCN(C(=O)c2cc(Cl)ccc2-c2ncccn2)[C@@H]1CNc1ccc(Cl)cn1` [Example A203, (5-Chloro-2-(pyrimidin-2-yl)phenyl)((2S,3R)-2-(((5-chloropyridin-2-yl)amino)methyl)-3-methylpiperidin-1-yl)methanone], the pIC50 is < 5.30.

For `Cc1ccc(-c2ccccn2)c(C(=O)N2CCC[C@@H](C)[C@H]2CNc2ccc(C#N)cn2)c1` [Example A60, 6-((((2S,3R)-3-Methyl-1-(5-methyl-2-(pyridin-2-yl)benzoyl)piperidin-2-yl)methyl)amino)nicotinonitrile], the pIC50 was < 5.30.

Take `Cc1ccc(-c2cnccc2C)c(C(=O)N2CCC[C@@H](C)[C@H]2CNc2ccc(C(F)(F)F)cn2)c1` [Example A8, ((2S,3R)-3-Methyl-2-(((5-(trifluoromethyl)pyridin-2-yl)amino)methyl)piperidin-1-yl)(5-methyl-2-(4-methylpyridin-3-yl)phenyl)methanone]: the pIC50 was < 5.40.

As for `Cc1ccc(-c2ncccn2)c(C(=O)N2CCC[C@@H](C)[C@H]2CNc2nc3ccccc3o2)c1` [Example A204, ((2S,3R)-2-((Benzo[d]oxazol-2-ylamino)methyl)-3-methylpiperidin-1-yl)(5-methyl-2-(pyrimidin-2-yl)phenyl)methanone], the pIC50 was 6.59.

Consider `Cc1ccc(-n2nccn2)c(C(=O)N2CCC[C@@H](C)[C@H]2CNc2ncc(C(F)(F)F)cc2F)c1` [Example A82, ((2S,3R)-2-(((3-Fluoro-5-(trifluoromethyl)pyridin-2-yl)amino)methyl)-3-methylpiperidin-1-yl)(5-methyl-2-(2H-1,2,3-triazol-2-yl)phenyl)methanone], for which the pIC50 was 6.08.

As to `Cc1ccc(-n2nccn2)c(C(=O)N2CCC[C@@H](C)[C@H]2CNc2nccc(C(F)(F)F)n2)c1` [Example A163, ((2S,3R)-3-Methyl-2-(((4-(trifluoromethyl)pyrimidin-2-yl)amino)methyl)piperidin-1-yl)(5-methyl-2-(2H-1,2,3-triazol-2-yl)phenyl)methanone], the pIC50 was 5.92.

Turning to `Cc1ccc(-c2ccccn2)c(C(=O)N2CCC[C@@H](C)[C@H]2CNc2ccc(C(F)(F)F)nn2)n1` [Example A165, ((2S,3R)-3-methyl-2-(((6-(trifluoromethyl)pyridazin-3-yl)amino)methyl)piperidin-1-yl)(6′-methyl-[2,3′-bipyridin]-2′-yl)methanone], the pIC50 was < 5.30.

The same test, now with this note: Table 2; CHO-OX2 cells, EC90 of OXA; read-out: IC50 Bioactivity OX2.
As to `Cc1nc(C(=O)N2CCC[C@@H](C)[C@H]2CNc2cncc(Cl)n2)c(-c2ccc(F)cc2)s1` (racemic) [Example 123, rac-cis-(2-(((6-Chloropyrazin-2-yl)amino)methyl)-3-methylpiperidin-1-yl)(5-(4-fluorophenyl)-2-methylthiazol-4-yl)methanone], the pIC50 was 5.49.

Regarding `Cc1cnc(NC[C@@H]2[C@H](C)CCCN2C(=O)c2nc(C)sc2-c2ccc(F)cc2)nc1` (racemic) [Example 83, rac-cis-(3-Methyl-2-(((5-methylpyrimidin-2-yl)amino)methyl)piperidin-1-yl)(5-(4-fluorophenyl)-2-methylthiazol-4-yl)methanone], the pIC50 is < 5.00.

Regarding `Cc1nc(C(=O)N2CCC[C@@H](C)[C@H]2CNc2nc3ccccc3s2)c(-c2ccc(F)cc2)s1` (racemic) [Example 72, rac-cis-(2-((Benzo[d]thiazol-2-ylamino)methyl)-3-methylpiperidin-1-yl)(5-(4-fluorophenyl)-2-methylthiazol-4-yl)methanone], the pIC50 was < 5.40.

For the molecule `CC[C@@H]1CCCN(C(=O)c2nc(C)sc2-c2ccc(F)cc2)[C@@H]1CNc1nc2ccccc2o1` (racemic) [Example 77, rac-cis-(2-((Benzo[d]oxazol-2-ylamino)methyl)-3-ethylpiperidin-1-yl)(5-(4-fluorophenyl)-2-methylthiazol-4-yl)methanone], the pIC50 was < 5.00.

As for `Cc1nc(C(=O)N2CCC[C@@H](C)[C@H]2CNc2ccc(C(F)(F)F)cn2)c(-c2ccccc2)s1` (racemic) [Example 73, rac-cis-(3-Methyl-2-(((5-(trifluoromethyl)pyridin-2-yl)amino)methyl)piperidin-1-yl)(2-methyl-5-phenylthiazol-4-yl)methanone], the pIC50 is < 5.52.

In the case of `CC(=O)O[C@H]1C[C@@H](CNC(=O)c2cccc3cccnc23)N(C(=O)c2ccccc2-c2ccccc2)C1` [Example 131, (3S,5S)-1-([1,1′-Biphenyl]-2-carbonyl)-5-((quinoline-8-carboxamido)methyl)pyrrolidin-3-yl acetate], the pIC50 was 7.40.

In the case of `Cc1nc(C(=O)N2CCC[C@@H](C)[C@H]2CNc2cccc(C(F)(F)F)n2)c(-c2ccc(F)cc2)s1` (racemic) [Example 87, rac-cis-(3-Methyl-2-(((6-(trifluoromethyl)pyridin-2-yl)amino)methyl)piperidin-1-yl) (5-(4-fluorophenyl)-2-methylthiazol-4-yl)methanone], the pIC50 is 7.15.

`O=C1C[C@@H](CNC(=O)c2cccc3cccnc23)N(C(=O)c2ccccc2-c2ccccc2)C1` [Example 6, (S)—N-((1-(Biphenylcarbonyl)-4-oxopyrrolidin-2-yl)methyl)quinoline-8-carboxamide]: the pIC50 is 6.15.

Values taken from patent US9440982B2 (Eolas Therapeutics, Inc., priority 2012, dated 2016).
